Results reported in US12528818B2, “Compositions and methods for inhibition of RAS” (Leidos Biomedical Research, Inc., priority 2021, dated 2026).

How the values were obtained:
[1] = target: GDP-loaded KRAS4b (amino acids 1-169) G12C/C118S protein (Homo sapiens, UniProt P01116, C118S/G12C); test: Covalent cysteine 12 modification by MALDI-TOF MS, GDP-loaded KRAS G12C; type: biochemical; details: 15 minutes reaction time, compounds 94 or before using 5 μM proteins
[2] = target: GppNHp-loaded KRAS4b (amino acids 1-169) G12C/C118S protein (Homo sapiens, UniProt P01116, C118S/G12C); test: Covalent cysteine 12 modification by MALDI-TOF MS, GppNHp-loaded KRAS G12C; type: biochemical; details: 15 minutes reaction time, compounds 94 or before using 5 μM proteins
[3] = target: Avi-KRAS G12C (1-169) GppNHp/RAF1 RBD-3xFLAG (52-151) (Homo sapiens, UniProt P01116, G12C); test: biochemical; details: Raf1-GppNHp-KRAS G12C disruption, Raf1 RBD-KRAS G12C-GppNHp disruption assay IC50

SMILES	GDP-KRAS G12C percent of modification [1]	GppNHp-KRAS G12C percent of modification [2]	IC50 [3]
N#CN1CC(Nc2ncnc3c(F)c(-c4ccc(F)c5sc(N)nc45)c(C(F)(F)F)cc23)C1 [Compound 45]	A (percent of modification ≥70%)	A (percent of modification ≥70%)	< 0.5 µM
C=CC(=O)N1CCCC12CN(c1nc(OC[C@@H]3CCCN3C)nc3c(F)c(-c4ccc(F)c5sc(N)nc45)c(Cl)cc13)C2 [Compound 46]	B (50≤percent of modification <70%)	D (percent of modification <10%)	> 20 µM
C=CC(=O)N1CCC(Nc2nc(OC[C@@H]3CCCN3C)nc3c(F)c(-c4ccc(F)c5sc(N)nc45)c(Cl)cc23)CC1 [Compound 47]	A (percent of modification ≥70%)	C (10%≤percent of modification <50%)	5 to 20 µM
C=CC(=O)NCCNc1nc(OC[C@@H]2CCCN2C)nc2c(F)c(-c3ccc(F)c4sc(N)nc34)ncc12 [Compound 48]	B (50≤percent of modification <70%)	D (percent of modification <10%)	> 20 µM
C=CC(=O)N1CC(Nc2nc(OCC34CCCN3CCC4)nc3c(F)c(-c4ccc(F)c5sc(N)nc45)c(Cl)cc23)C1 [Compound 49, 1-(3-((7-(2-amino-7-fluorobenzo[d]thiazol-4-yl)-6-chloro-8-fluoro-2-((tetrahydro-1H-pyrrolizin-7a(5H)-yl)methoxy)quinazolin-4-yl)amino)azetidin-1-yl)prop-2-en-1-one]	A (percent of modification ≥70%)	A (percent of modification ≥70%)	< 0.5 µM
C=CC(=O)N1CC(Nc2nc(O)nc3c(F)c(-c4ccc(F)c5sc(N)nc45)c(Cl)cc23)C1 [Compound 50]	C (10%≤percent of modification <50%)	D (percent of modification <10%)	> 20 µM
CN1CCC[C@H]1COc1nc(NC2CCN(C#N)C2)c2cc(Cl)c(-c3ccc(F)c4sc(N)nc34)c(F)c2n1 (stereo partly drawn) [Compound 51]	B (50≤percent of modification <70%)	B (50≤percent of modification <70%)	< 0.5 µM
C=CC(=O)N1CCC(Nc2nc(OC[C@@H]3CCCN3C)nc3c(F)c(-c4ccc(F)c5sc(N)nc45)c(Cl)cc23)C1 (stereo partly drawn) [Compound 52]	A (percent of modification ≥70%)	B (50≤percent of modification <70%)	< 0.5 µM
CN1CCC[C@H]1COc1nc(NC2CCCN(C#N)C2)c2cc(Cl)c(-c3ccc(F)c4sc(N)nc34)c(F)c2n1 (stereo partly drawn) [Compound 53]	C (10%≤percent of modification <50%)	D (percent of modification <10%)	5 to 20 µM
C=CC(=O)N1CCCC(Nc2nc(OC[C@@H]3CCCN3C)nc3c(F)c(-c4ccc(F)c5sc(N)nc45)c(Cl)cc23)C1 (stereo partly drawn) [Compound 54]	B (50≤percent of modification <70%)	C (10%≤percent of modification <50%)	0.5 to 5 µM
CN1CCC[C@H]1COc1nc(NC2CCN(C#N)CC2)c2cc(Cl)c(-c3ccc(F)c4sc(N)nc34)c(F)c2n1 [Compound 55]	B (50≤percent of modification <70%)	C (10%≤percent of modification <50%)	0.5 to 5 µM
C=CC(=O)N1CCN(c2nc(OC[C@@H]3CCCN3C)nc3c(F)c(-c4ccc(F)c5sc(N)nc45)c(Cl)cc23)C[C@@H]1C [Compound 56]	A (percent of modification ≥70%)	C (10%≤percent of modification <50%)	0.5 to 5 µM
C=CC(=O)N1CCC12CN(c1nc(OC[C@@H]3CCCN3C)nc3c(F)c(-c4ccc(F)c5sc(N)nc45)c(Cl)cc13)C2 [Compound 57]	A (percent of modification ≥70%)	D (percent of modification <10%)	> 20 µM
N#CN1CC(Nc2nc(OCC34CCCN3CCC4)nc3c(F)c(-c4ccc(F)c5sc(N)nc45)c(Cl)cc23)C1 [Compound 58]	A (percent of modification ≥70%)	A (percent of modification ≥70%)	< 0.5 µM
C=CC(=O)N1CCN(c2nc(C3CCN(C)CC3)nc3c(F)c(-c4ccc(F)c5sc(N)nc45)c(Cl)cc23)CC1 [Compound 59, 1-(4-(7-(2-amino-7-fluorobenzo[d]thiazol-4-yl)-6-chloro-8-fluoro-2-(1-methylpiperidin-4-yl)quinazolin-4-yl)piperazin-1-yl)prop-2-en-1-one]	A (percent of modification ≥70%)	D (percent of modification <10%)	> 20 µM
C=CC(=O)N1CC(Nc2nc(C3CCN(C)CC3)nc3c(F)c(-c4ccc(F)c5sc(N)nc45)c(Cl)cc23)C1 [Compound 60]	A (percent of modification ≥70%)	B (50≤percent of modification <70%)	0.5 to 5 µM
NC(=O)/C=C/C(=O)N1CC(Nc2ncnc3c(F)c(-c4ccc(F)c5sc(N)nc45)c(Cl)cc23)C1 [Compound 61]	B (50≤percent of modification <70%)	D (percent of modification <10%)	> 20 µM
CN(C)C(=O)/C=C/C(=O)N1CC(Nc2ncnc3c(F)c(-c4ccc(F)c5sc(N)nc45)c(Cl)cc23)C1 [Compound 62]	C (10%≤percent of modification <50%)	D (percent of modification <10%)	> 20 µM
C=CC(=O)N1CC(Nc2nc(OC[C@@H]3C[C@@H](F)CN3C)nc3c(F)c(-c4ccc(F)c5sc(N)nc45)c(Cl)cc23)C1 [Compound 63]	A (percent of modification ≥70%)	A (percent of modification ≥70%)	< 0.5 µM
C=CC(=O)NCCNc1nc(C2CCN(C)CC2)nc2c(F)c(-c3ccc(F)c4sc(N)nc34)c(Cl)cc12 [Compound 64]	B (50≤percent of modification <70%)	D (percent of modification <10%)	> 20 µM
C=CC(=O)N1CC[C@@H]2[C@H]1CN2c1nc(OCC23CCCN2CCC3)nc2c(F)c(-c3ccc(F)c4sc(N)nc34)c(Cl)cc12 [Compound 65]	A (percent of modification ≥70%)	C (10%≤percent of modification <50%)	0.5 to 5 µM
C=CC(=O)N1CC[C@@H]2[C@H]1CN2c1nc(OC[C@@H]2CCCN2C)nc2c(F)c(-c3ccc(F)c4sc(N)nc34)c(Cl)cc12 [Compound 66]	A (percent of modification ≥70%)	C (10%≤percent of modification <50%)	0.5 to 5 µM
C=CC(=O)N1CCN(c2nc(OCC34CCCN3CCC4)nc3c(F)c(-c4ccc(F)c5sc(N)nc45)c(Cl)cc23)CC1 [Compound 67]	A (percent of modification ≥70%)	A (percent of modification ≥70%)	< 0.5 µM
C=CC(=O)N1CCN(c2ncnc3c(F)c(-c4ccc(F)c5sc(N)nc45)cc(OC)c23)CC1 [Compound 68]	B (50≤percent of modification <70%)	D (percent of modification <10%)	> 20 µM
C=CC(=O)N1CC(Nc2ncnc3c(F)c(-c4ccc(F)c5sc(N)nc45)cc(OC)c23)C1 [Compound 69, 1-(3-((7-(2-amino-7-fluorobenzo[d]thiazol-4-yl)-8-fluoro-5-methoxyquinazolin-4-yl)amino)azetidin-1-yl)prop-2-en-1-one]	B (50≤percent of modification <70%)	D (percent of modification <10%)	> 20 µM
C=CC(=O)N1CC(Nc2nc(OCC34CCCN3CCC4)nc3c(F)c(-c4ccc(F)c5sc(N)nc45)c(-c4ccoc4)cc23)C1 [Compound 70, 1-(3-((7-(2-amino-7-fluorobenzo[d]thiazol-4-yl)-8-fluoro-6-(furan-3-yl)-2-((tetrahydro-1H-pyrrolizin-7a(5H)-yl)methoxy)quinazolin-4-yl)amino)azetidin-1-yl)prop-2-en-1-one]	A (percent of modification ≥70%)	A (percent of modification ≥70%)	< 0.5 µM
C=CC(=O)N1CCN(c2nc(OC[C@@H]3CCCN3C)nc3c(F)c(-c4ccc(F)c5sc(N)nc45)c(C(F)(F)F)cc23)CC1 [Compound 71, 1-(4-(7-(2-amino-7-fluorobenzo[d]thiazol-4-yl)-8-fluoro-2-(((S)-1-methylpyrrolidin-2-yl)methoxy)-6-(trifluoromethyl)quinazolin-4-yl)piperazin-1-yl)prop-2-en-1-one]	A (percent of modification ≥70%)	C (10%≤percent of modification <50%)	0.5 to 5 µM
C=CC(=O)N1CCN(c2ncnc3c(F)c(-c4ccc(F)c5sc(N)nc45)c(CC#N)cc23)CC1 [Compound 72]	A (percent of modification ≥70%)	D (percent of modification <10%)	> 20 µM
C=CC(=O)N1CC(N(C)c2nc(OC[C@@H]3CCCN3C)nc3c(F)c(-c4ccc(F)c5sc(N)nc45)c(Cl)cc23)C1 [Compound 73]	A (percent of modification ≥70%)	C (10%≤percent of modification <50%)	5 to 20 µM
